“Also recorded” adds a separate entry of the source.
Biological target: T1, mushroom tyrosinase (Agaricus bisporus, UniProt C7FF04)
T1 construct: purchased Sigma-Aldrich
Assay: biochemical
Format: biochemical

Chains of the proteins cited; added tags and fusions are not shown. Residues count along the entry.
UniProt C7FF04, 1-392: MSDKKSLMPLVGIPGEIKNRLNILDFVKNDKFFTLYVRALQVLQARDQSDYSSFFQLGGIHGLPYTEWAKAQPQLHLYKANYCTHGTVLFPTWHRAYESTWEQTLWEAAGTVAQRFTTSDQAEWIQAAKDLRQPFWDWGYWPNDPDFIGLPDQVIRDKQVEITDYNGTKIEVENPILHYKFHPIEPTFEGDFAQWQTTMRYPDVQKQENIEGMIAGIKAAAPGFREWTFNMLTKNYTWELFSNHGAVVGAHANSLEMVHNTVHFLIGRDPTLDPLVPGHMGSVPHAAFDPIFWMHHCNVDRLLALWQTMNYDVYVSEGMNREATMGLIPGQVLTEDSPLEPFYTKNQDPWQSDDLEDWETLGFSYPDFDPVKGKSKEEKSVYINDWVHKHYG

## O=C(/C=C/c1ccc(O)cc1O)c1ccco1 [Compound 8, (E)-3-(2,4-Dihydroxyphenyl)-1-(furan-2-yl)prop-2-en-1-one]
  inhibition type: mixed-type inhibition; also recorded: mixed inhibition type

From article PMC7700175, “(E)-1-(Furan-2-yl)-(substituted phenyl)prop-2-en-1-one Derivatives as Tyrosinase Inhibitors and Melanogenesis Inhibition: An In Vitro and In Silico Study” (Molecules, 2020)
